What was measured:
[1] = biological target: T1, Metabotropic glutamate receptor 5 (Homo sapiens, UniProt P41594); test: Non-competitive antagonist activity at mGluR5; assay type: functional
[2] = biological target: T1, Metabotropic glutamate receptor 5; test: Displacement of [3H]3-methoxy-5-(2-pyridinylethynyl) pyridine from mGluR5 allosteric site

Sequences of proteins named here, by UniProt entry; tags and fusion partners are left off.
UniProt P41594, whole entry: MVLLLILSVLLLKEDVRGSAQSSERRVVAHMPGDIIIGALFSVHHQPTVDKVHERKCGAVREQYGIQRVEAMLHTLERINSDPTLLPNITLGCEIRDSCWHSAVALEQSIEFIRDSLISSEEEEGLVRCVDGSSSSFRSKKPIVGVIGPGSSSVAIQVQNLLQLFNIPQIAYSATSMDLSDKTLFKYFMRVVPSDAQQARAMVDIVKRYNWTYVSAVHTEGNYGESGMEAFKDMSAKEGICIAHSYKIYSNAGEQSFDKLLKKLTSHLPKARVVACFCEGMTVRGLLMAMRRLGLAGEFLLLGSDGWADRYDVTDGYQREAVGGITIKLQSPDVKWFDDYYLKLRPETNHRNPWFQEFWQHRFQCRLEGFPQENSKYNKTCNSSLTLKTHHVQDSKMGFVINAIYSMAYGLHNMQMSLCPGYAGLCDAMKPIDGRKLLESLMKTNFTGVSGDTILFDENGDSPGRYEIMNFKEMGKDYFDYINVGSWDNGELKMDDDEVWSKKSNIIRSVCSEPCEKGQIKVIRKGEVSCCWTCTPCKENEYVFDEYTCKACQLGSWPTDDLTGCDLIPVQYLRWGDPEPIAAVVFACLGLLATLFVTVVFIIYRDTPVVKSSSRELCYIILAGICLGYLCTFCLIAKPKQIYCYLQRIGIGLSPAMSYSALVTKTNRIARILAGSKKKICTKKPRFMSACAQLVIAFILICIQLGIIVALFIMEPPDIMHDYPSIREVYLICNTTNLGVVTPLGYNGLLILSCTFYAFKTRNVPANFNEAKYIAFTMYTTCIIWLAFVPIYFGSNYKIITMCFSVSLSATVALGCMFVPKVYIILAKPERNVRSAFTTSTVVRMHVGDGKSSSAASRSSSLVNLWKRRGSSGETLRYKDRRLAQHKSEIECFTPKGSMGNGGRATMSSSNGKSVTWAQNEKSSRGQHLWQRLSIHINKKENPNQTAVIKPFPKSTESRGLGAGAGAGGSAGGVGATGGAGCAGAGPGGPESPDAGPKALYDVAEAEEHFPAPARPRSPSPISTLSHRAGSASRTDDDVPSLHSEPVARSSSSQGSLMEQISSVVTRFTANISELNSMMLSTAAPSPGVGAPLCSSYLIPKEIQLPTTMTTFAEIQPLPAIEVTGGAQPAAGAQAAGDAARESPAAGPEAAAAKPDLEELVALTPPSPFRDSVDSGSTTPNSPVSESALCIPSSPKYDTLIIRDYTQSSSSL

**Q.** What does the source list for O=C(N1CCN(c2nccs2)CC1)C12CC3CC(CC(C3)C1)C2?
**A.** IC50 [1]: 540 nM; Ki [2]: 440 nM

**Q.** With O=C(CSc1ccccc1)N1CCCC2(CCCCC2)C1 as the molecule, how does the IC50 [1] read?
**A.** 5240 nM

**Q.** How did the IC50 [1] turn out when O=C(C1CCC1)N1CCCC2(CCCCC2)C1 was run?
**A.** 820 nM

**Q.** What about the Ki [2] of the same molecule?
**A.** 840 nM

**Q.** How did the IC50 [1] turn out when N#Cc1ccccc1N1CCN(C(=O)C23CC4CC(CC(C4)C2)C3)CC1 was run?
**A.** 2350 nM

**Q.** How did the Ki [2] turn out when Cc1cc(C)c2c(N)c(C(=O)c3ccc(F)cc3)oc2n1 was run?
**A.** 410 nM

From ChEMBL document CHEMBL1781871, “Discovery and SAR of novel mGluR5 non-competitive antagonists not based on an MPEP chemotype” (Bioorg Med Chem Lett, 2009)
